This passage reports Ki results from patent US10183953B2, “Substituted 2-azabicycles and their use as orexin receptor modulators” (Janssen Pharmaceutica NV, priority 2013, dated 2019).

The chains behind the UniProt entries cited, without tags or fusion partners.
UniProt O43613, whole entry: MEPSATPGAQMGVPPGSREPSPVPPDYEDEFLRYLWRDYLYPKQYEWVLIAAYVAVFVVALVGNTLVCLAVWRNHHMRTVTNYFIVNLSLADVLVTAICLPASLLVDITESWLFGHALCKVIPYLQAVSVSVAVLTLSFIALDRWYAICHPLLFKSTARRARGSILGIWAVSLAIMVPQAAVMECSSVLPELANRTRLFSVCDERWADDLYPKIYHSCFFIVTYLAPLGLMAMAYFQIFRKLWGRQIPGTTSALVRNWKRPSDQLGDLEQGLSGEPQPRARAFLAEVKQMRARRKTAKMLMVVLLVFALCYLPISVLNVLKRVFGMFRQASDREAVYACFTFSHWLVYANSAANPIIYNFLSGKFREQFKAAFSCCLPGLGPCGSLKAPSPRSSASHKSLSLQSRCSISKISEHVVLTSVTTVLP

One assay addresses rat orexin 1 receptor (Rattus norvegicus, UniProt P56718). Kind of assay: Rat orexin 1 receptor radioligand binding (competitive, HEK293 membranes). To be noted: rat OX1 receptor binding; averages from between 2-20 runs; read-out: rOX1 Ki. As to the method:
(§1) The in vitro affinity of the compounds of the invention for the rat/human orexin 1 and human orexin 2 receptors was determined by competitive radioligand binding using [^3H]
(§2) Data are analyzed using pc-Sandy macro and graphed on Graphpad Prism 5. For analysis, each concentration point is averaged from triplicate values and the averaged values are plotted on Graphpad Prism. The IC50 was determined by applying the following equation (GraphPad Prism 5.0, SanDiego) for one site competition where X=log (concentration) and Y=specific binding. […] Graphpad Prism calculates Ki value from IC50 and the pre-determined Kd values for [^3H]-(1-(5-(2-fluoro-phenyl)-2-methyl-thiazol-4-yl)-1-((S)-2-(5-phenyl-(1,3,4)oxadiazol-2-ylmethyl)-pyrrolidin-1-yl)-methanone) and [3H]-EMPA. […]
(§3) After centrifugation (2K×G, 5 min at 4° C.), the supernatant was aspirated and the pellets frozen and stored at −80° C. […] Total and nonspecific binding was determined in the absence and presence of 10 μM almorexant. […] Plates were dried in 55° C. oven for 60 min, scintillation fluid was added, and the radioactivity was counted on a Topcount (Packard).

The target in a further assay is human orexin 1 receptor (Homo sapiens (Human), UniProt O43613). Kind of assay: Human orexin 1 receptor radioligand binding (competitive, CHO membranes). The settings on record: human OX1 receptor binding; averages from between 2-20 runs; read-out: hOX1 Ki. As to the method: as §1, §2, §3

Structures are written as SMILES.

As a reminder, the Ki is the equilibrium dissociation constant of an inhibitor or competing ligand from its target. Consider `Cc1ccc(-n2nccn2)c(C(=O)N2C[C@@H]3CC[C@H]2[C@H](Nc2cnc(C(F)(F)F)cn2)C3)n1` [Example 83, (6-methyl-3-(2H-1,2,3-triazol-2-yl)pyridin-2-yl)((1S,4R,6R)-6-((5-(trifluoromethyl)pyrazin-2-yl)amino)-2-azabicyclo[2.2.2]octan-2-yl)methanone], for which the Ki at rat orexin 1 receptor came to 8 nM; at human orexin 1 receptor it was 5 nM.
